As a reminder, the IC50 is the concentration needed to halve the response being measured.

Protein sequences, listed by entry. Tags and fused reporters are not part of them. Lines headed by an entry give the natural chain unless they say otherwise; changes in a name come on top.
UniProt Q3HL76: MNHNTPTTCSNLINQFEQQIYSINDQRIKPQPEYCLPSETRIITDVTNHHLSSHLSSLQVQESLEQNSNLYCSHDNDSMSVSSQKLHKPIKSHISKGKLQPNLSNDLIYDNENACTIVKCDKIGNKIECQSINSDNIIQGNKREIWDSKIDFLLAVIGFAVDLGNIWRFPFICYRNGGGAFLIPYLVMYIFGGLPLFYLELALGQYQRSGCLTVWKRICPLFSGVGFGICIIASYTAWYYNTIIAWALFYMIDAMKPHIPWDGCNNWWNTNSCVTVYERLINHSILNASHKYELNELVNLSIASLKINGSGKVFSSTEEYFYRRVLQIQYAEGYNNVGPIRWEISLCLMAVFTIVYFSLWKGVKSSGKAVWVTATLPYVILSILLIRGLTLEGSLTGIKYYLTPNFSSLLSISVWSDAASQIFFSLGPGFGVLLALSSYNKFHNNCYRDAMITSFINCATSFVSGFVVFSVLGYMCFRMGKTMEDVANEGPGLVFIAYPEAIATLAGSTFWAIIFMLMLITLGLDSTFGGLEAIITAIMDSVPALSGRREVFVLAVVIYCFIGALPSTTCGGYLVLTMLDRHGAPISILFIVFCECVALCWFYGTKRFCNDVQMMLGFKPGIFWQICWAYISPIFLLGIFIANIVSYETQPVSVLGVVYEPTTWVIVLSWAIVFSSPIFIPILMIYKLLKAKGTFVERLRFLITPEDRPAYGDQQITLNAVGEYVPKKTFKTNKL
UniProt Q3I1M7: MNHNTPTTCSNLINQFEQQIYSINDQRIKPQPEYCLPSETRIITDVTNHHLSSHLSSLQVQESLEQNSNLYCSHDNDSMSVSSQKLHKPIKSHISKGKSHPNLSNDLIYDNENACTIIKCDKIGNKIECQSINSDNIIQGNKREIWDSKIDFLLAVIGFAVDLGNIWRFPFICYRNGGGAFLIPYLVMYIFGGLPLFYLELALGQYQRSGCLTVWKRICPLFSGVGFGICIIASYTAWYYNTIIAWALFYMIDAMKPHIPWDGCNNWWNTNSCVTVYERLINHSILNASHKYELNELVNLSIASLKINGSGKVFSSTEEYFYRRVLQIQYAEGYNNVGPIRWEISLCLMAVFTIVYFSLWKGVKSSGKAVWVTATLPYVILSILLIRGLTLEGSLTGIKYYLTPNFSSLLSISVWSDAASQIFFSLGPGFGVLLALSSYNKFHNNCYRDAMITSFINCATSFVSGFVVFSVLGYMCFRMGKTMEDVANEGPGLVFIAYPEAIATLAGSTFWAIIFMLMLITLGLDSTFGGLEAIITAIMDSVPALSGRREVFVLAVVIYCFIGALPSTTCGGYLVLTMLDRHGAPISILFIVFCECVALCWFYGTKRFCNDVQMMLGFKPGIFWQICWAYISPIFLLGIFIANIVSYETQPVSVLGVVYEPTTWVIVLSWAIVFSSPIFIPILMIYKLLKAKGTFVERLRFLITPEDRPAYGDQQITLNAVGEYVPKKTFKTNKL

The text below walks through data of paper PMC2746412 (European journal of pharmacology, 2009).

One experiment has as its target GFP-SmSERT-A (Schistosoma mansoni, UniProt Q3HL76). The experiment is described as follows: cell-based.
The next experiment has as its target GFP-SmSERT-B (Schistosoma mansoni, UniProt Q3I1M7). The experiment in a line: cell-based.

`CN(C)CCCN1c2ccccc2Sc2ccc(Cl)cc21` [Chlorpromazine]: the values for the IC50 at GFP-SmSERT-A and against GFP-SmSERT-B were 200 ± 100 nM and 300 ± 200 nM, respectively.

As for `CN(C)CCCC1(c2ccc(F)cc2)OCc2cc(C#N)ccc21` (stereo not shown) [Citalopram], the IC50 against GFP-SmSERT-A was determined as 250 ± 100 nM; at GFP-SmSERT-B, 190 ± 130 nM. In turn, `CN(C)CCCN1c2ccccc2CCc2ccc(Cl)cc21` [Clomipramine] showed an IC50 against GFP-SmSERT-B of 200 ± 100 nM. `CNCCCN1c2ccccc2CCc2ccccc21` [Desipramine]: the IC50 against GFP-SmSERT-B amounted to 1500 ± 400 nM. For the compound `CNCCC(Oc1ccc(C(F)(F)F)cc1)c1ccccc1` (stereo not shown) [Fluoxetine], the IC50 against GFP-SmSERT-A and at GFP-SmSERT-B was 200 ± 100 nM throughout.

With `Fc1ccc([C@@H]2CCNC[C@H]2COc2ccc3c(c2)OCO3)cc1` [Paroxetine], the IC50 on GFP-SmSERT-A was 90 ± 70 nM; against GFP-SmSERT-B, 100 ± 100 nM.
